Experimental data taken from US5486595A, “Tumor necrosis factor inhibitors” (Centecor, Inc., priority 1994, dated 1996).

Sequences of proteins named here, by UniProt entry; tags and fusion partners are left off. Residues count along the entry.
UniProt P01375, 77-233 limits assumed: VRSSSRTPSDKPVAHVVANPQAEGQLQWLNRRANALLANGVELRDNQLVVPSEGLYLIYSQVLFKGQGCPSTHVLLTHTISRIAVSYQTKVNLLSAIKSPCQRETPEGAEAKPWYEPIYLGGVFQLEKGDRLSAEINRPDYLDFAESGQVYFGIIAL

Molecular target: T1, human TNFα (Homo sapiens, UniProt P01375)
T1 construct: purchased Biosource, Camarillo, Calif
Assay: p55 Receptor/IgG Fusion Protein Binding Assay (inhibition of TNFα capture by p55-Ig coated plate)
Conditions: positive control, cA2 Fab 500 ng/ml; typical value
Protocol: In order to screen compounds for their ability to block TNFα binding to the TNF p55 receptor, an assay has been designed using TNFα and a p55/IgG fusion protein in place of monovalent, non-fusion p55 TNF receptor protein. This assay was designed to identify peptides which bind to human TNFα and thereby prevent the capture of the TNFα by a microtiter plate coated with p55-Ig fusion protein. A constant concentration of human TNFα is preincubated with the test peptide and then incubated on the p55-Ig coated microtiter wells. Bound TNFα is detected using a specific antisera and an alkaline phosphatase-conjugated probe. An active peptide will reduce the amount of human TNFα bound to the well relative to control wells in which TNFα but no peptide was added. […]
To detect TNFα captured by the p55-Ig plate, all wells were incubated in succession with polyclonal rabbit anti-human TNFα (Genzyme, Boston, Mass.; 1:500 in assay buffer, 50 μl/well), biotinylated goat anti-rabbit Ig (H&L) (Vector Laboratories, Burlingame, Calif.; 1 μg/ml in assay buffer, 50 μl/well) and streptavidin-alkaline phosphatase conjugate (Pierce, Rockford, Ill.; 1 μg/ml in assay buffer, 50 μl/well). […] The optical density (OD) at 405 nm was measured on a microtiter plate reader (Molecular Devices Vmax plate reader), with the plate blank wells subtracted as background. […]

inhibition of TNFα capture by the p55-Ig plate: ≥ 75%
Substance: cA2 Fab: Fab fragment of the mouse/human monoclonal anti-human TNFα antibody cA2 (positive control) [reference compound]
